miR-21 reporter: miR-21 reporter, rising signal. HeLa miR-21 FLuc reporter, luciferase, 48 h. Potency, µM (highest dose often 38.3 µM), for the others: at the highest dose reporter change, positive = more light. 340,000 tested, under 10 active. AID 2288; active = well fitted rising curve with a large enough effect; inconclusive = small, poorly fitted or top-dose-only effect; inactive = no such curve, though single readings can be large or run the other way;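 further: % of control where 0% means no effect; miR-21 action dims this reporter so a rising signal means less miR-21 action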
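HeLa miR-21-FLuc reporter line, endogenous miR-21; 2000 cells/well in DMEM/10% FBS; compound titration up to ~40uM final, 48 h, 37 degree Celsius; luciferase detection reagent, 15 min lysis, CCD luminescence.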
Lamin A splicing: LMNA splicing modulation. HeLa LMNA splicing GFP/RFP minigene ratio, 48 h. Potency, µM (series often up to 46.1 µM), without a hit: at the highest dose ratio change, negative = inhibition, actives largely listed as inhibitors. 0.01% of 200,000 active. AID 1487; active means well fitted inhibition curve with a large enough effect in the signal ratio, with a control signal flat, not every such curve was filed as active; inconclusive means small, poorly fitted or top-dose-only effect, or effect the other way, or a change in a side signal; the % refers to the signal ratio; further: potency means the concentration at half of the fitted maximal effect; on the % scale 0 is the no-effect control and ±100 the full control effect
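S3 HeLa stable clones carrying a lamin A-EGFP splicing minigene plus DsRed2 were seeded at 600 cells/well in Opti-MEM with 2% FBS, pin-dosed and incubated 48 h at 37°C. Acumen cytometry (488 nm) gave the GFP/RFP total-intensity ratio.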
KDM4E inh: inhibitors of human JMJD2E histone demethylase. 1.6% of 230,000 active. Potency, µM (titrated, usually from 57.1 µM), for inactives: at the highest dose activity change, negative = inhibition, usual class: inhibitors. JMJD2E catalytic domain, FDH-coupled NADH fluorescence (FDH is formaldehyde dehydrogenase);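 further: potency means the concentration at half of the fitted maximal effect; 0% = wells with enzyme and -100% = buffer wells without enzyme; nearly all actives have a fitted effect of over 50% in size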
G9a inh: inhibitors of human histone lysine methyltransferase G9a; 8.8% of 350,000 active; G9a H3K9 monomethylation, AlphaScreen, 2 h; Q96KQ7; AID 504332; Potency, µM (top dose mostly 102 µM), for the others: top-dose activity, negative = inhibition, usual class: inhibitors; further: potency means the concentration at half of the fitted maximal effect; on the % scale 0 is the no-effect control and ±100 the full control effect; nearly all actives have a fitted effect of over 75% in size
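G9a (20 nM) was preincubated 15 min with compound, then reacted 2 h at room temperature with 500 nM biotin-H3K9 peptide and 20 µM SAM. Monomethyl-H3K9 detected by AlphaScreen using anti-H3K9me1 antibody.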
Sfp PPTase inh: qHTS Assay for Inhibitors of Bacillus subtilis Sfp phosphopantetheinyl transferase (PPTase) | Biochemical Sfp PPTase activity, qHTS | Potency, µM, without a hit: max response, negative = inhibition, most hits filed as inhibitors | actives 3.5% (n = 310,000) | AID 1490, 2009 | 4'-phosphopantetheinyl transferase ffp (Bacillus subtilis), Q9F4F7; active = well fitted inhibition curve with a large enough effect; inconclusive = small, poorly fitted or top-dose-only effect, or another doubt; inactive = no such curve, though single readings can be large or run the other way;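 note: the enzyme is Sfp with the accession as filed and its product quenches rhodamine fluorescence; potency is the fitted concentration of half-maximal effect; 0% = enzyme reaction without inhibitor and -100% = no enzyme wells; top concentration of the series not given in the record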
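Fluorescence-quenching assay with 15 nM Sfp, 5 uM rhodamine-CoA and 12.5 uM BHQ-2-labelled ybbR peptide in pH 7.6 Hepes/MgCl2 buffer. Enzyme was pre-incubated with compound for 15 min at room temperature. Rate was taken from the 30-min fluorescence change (525/598 nm).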
ALDH1A1 inh: inhibitors of human aldehyde dehydrogenase 1A1; P00352; Purified ALDH1A1, NADH fluorescence, propionaldehyde substrate; Potency, µM (doses to about 75.3 µM), without a hit: at the highest dose activity, negative = inhibition, actives largely listed as inhibitors; 7.3% of 220,000 active; AID 1030; active means well fitted inhibition curve with a large enough effect, not every such curve was filed as active; inconclusive means small, poorly fitted or top-dose-only effect, or another doubt; inactive means no such curve, though single readings can be large or run the other way;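 further: potency means the concentration at half of the fitted maximal effect; plate controls were no enzyme wells and a reference inhibitor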
An asterisk follows results filed as active; ? = inconclusive; . = not tested or not shown; ! = not active in a repeat; [ ] = remark or other dose. A selection: hits, their analogues and other compounds. The true share with any hit is near 13%. Unless noted, the call rests on the fitted dose curve; in most records, active means well fitted curve in the direction sought with a large enough effect; inconclusive means small, poorly fitted or top-dose-only effect, or another doubt; inactive means no such curve, though single readings can be large; an effect the other way counts as inactive or inconclusive.

SMILES	miR-21 reporter	Lamin A splicing	KDM4E inh	G9a inh	Sfp PPTase inh	ALDH1A1 inh
O=C1NC(=O)c2c1c1c3ccccc3n3c1c1c2c2ccccc2n1C1CCC3O1	.	.	.	.	2%	.
CC(C)(C)c1ccc(O)c(N=Cc2c(O)ccc3ccccc23)c1	0%	.	.	8.9µM*	17%	.
COC(=O)C(O)(c1ccc(N=Cc2ccccc2O)c(C)c1)C(F)(F)F (stereo unspecified)	-2%	2%	-4%	21%[59 µM]	27%	-1%
Cc1ccc(CN(Cc2ccccc2)C(=S)NCC(=O)N2CCC3(CC2)OCCO3)o1	9%	5%[46 µM]	1%	50µM*	-12%	?
C[C@@H](Cc1cccc(C(F)(F)F)c1)NCCCc1ccccc1	.	.	-3%	.	-21%	1%
CCN(CC)c1ccc(N=Cc2c(O)n(CCc3ccc(OC)c(OC)c3)c(=O)[nH]c2=O)cc1	-3%	7%	-1%	7.1µM*	?	2%
CCn1c(O)c(C=Nc2ccc(S(N)(=O)=O)cc2)c(=O)[nH]c1=S	0%	-7%	?	?	-14%	-8%
CCN(CCO)c1ccc(N=Cc2c(O)n(C)c(=S)[nH]c2=O)cc1	-20%	.	?	35µM*	40µM*	.
COc1ccc(CCn2c(O)c(/C=N/NC(=O)c3ccncc3)c(=O)[nH]c2=O)cc1OC	1%	-5%	10µM*	4%	9%	?
CCCCC(=O)N/N=C/c1c(O)n(CCc2ccc(OC)c(OC)c2)c(=O)[nH]c1=O	-11%	?	22µM*	?	6%	1%
Cc1cc(C)nc(/N=C/c2c(O)n(C)c(=O)n(C)c2=O)n1	-3%	12%	?	-27%[59 µM]	10%	?
O=C(N/N=C/c1c(O)n(-c2ccccc2)c(=S)[nH]c1=O)c1ccccc1	-45%	.	28µM*	5%	19%	.
O=C(N/N=C/c1c(O)n(Cc2ccccc2)c(=O)[nH]c1=O)c1ccncc1	6%	.	20µM*	-37%	17%	.
COc1ccc(C(O)P(=O)(OCC(C)C)c2ccc(N(C)C)cc2)c(OC)c1 (stereo unspecified)	-1%	.	.	?	3%	.
COC(=O)C(O)(c1ccc(NC(=O)Oc2ccccc2)cc1)C(F)(F)F (stereo unspecified)	-1%	-8%	3%	12%[59 µM]	8%	?

Sorted by SMILES length (low to high): three of the compounds above.
SMILES	miR-21 reporter	Lamin A splicing	KDM4E inh	G9a inh	Sfp PPTase inh	ALDH1A1 inh
COC(=O)C(O)(c1ccc(N=Cc2ccccc2O)c(C)c1)C(F)(F)F (stereo unspecified)	-2%	2%	-4%	21%[59 µM]	27%	-1%
COc1ccc(C(O)P(=O)(OCC(C)C)c2ccc(N(C)C)cc2)c(OC)c1 (stereo unspecified)	-1%	.	.	?	3%	.
O=C(N/N=C/c1c(O)n(Cc2ccccc2)c(=O)[nH]c1=O)c1ccncc1	6%	.	20µM*	-37%	17%	.

(more compounds)
SMILES	miR-21 reporter	Lamin A splicing	KDM4E inh	G9a inh	Sfp PPTase inh	ALDH1A1 inh
COC(=O)C(O)(c1ccc(NC(=S)NC(=O)c2ccccc2)cc1)C(F)(F)F (stereo unspecified)	-21%	?	10%	-43%[59 µM]	-16%	25µM*
c1ccc2c(c1)CN1CCCC1=N2	0%	?	-13%	13%	6%	21%
CC1(C)C(C=C(Cl)Cl)C1C(=O)OC(C#N)c1cccc(Oc2ccccc2)c1 (stereo unspecified)	.	.	.	123%[59 µM]	23%	25µM*!
CC(=O)C(O)C(c1ccccc1)c1c(O)c2ccccc2oc1=O (stereo unspecified)	.	.	.	.	9%	.
Cc1ccsc1/C=C1\C(=O)NC(=S)N(C)C1=O	-9%	.	.	7.9µM*	20µM*	.
COc1ccc(/C=C2\C(=O)NC(=S)N(C)C2=O)cc1C	2%	9%[46 µM]	?	.	18µM*	7.9µM*
CN1C(=O)/C(=C/c2ccc(Cl)s2)C(=O)NC1=S	-7%	.	.	.	13µM*	.
CCOCCCNC(=O)c1c[nH]c2ccc(S(=O)(=O)N(C)c3ccc(Cl)cc3F)cc2c1=O	14%	?	.	2%[59 µM]	.	.
COC(=O)C1C(=O)C=C(Nc2ccc(F)cc2F)CC1c1ccccc1 (stereo unspecified)	-51%	-13%	-2%	-2%[59 µM]	9%	?
CC1=NN=C(c2ccc(N)cc2)c2cc3c(cc2C1)OCO3	.	?	-7%	7.5µM*!	-13%	-12%
CC1Cc2cc3c(cc2C(c2ccc(N)cc2)=NN1)OCO3 (stereo unspecified)	.	?	?	8.9µM*	.	-11%
CCC(C)N1C(=O)NC(=O)C2(Cc3cc(C)ccc3N(C)C2)C1=O (stereo unspecified)	0%	4%	1%	?	-11%	?
COc1ccc2c(c1)CC1(CN2C)C(=O)NC(=O)N(c2ccc(F)cc2)C1=O (stereo unspecified)	-4%	5%	?	20µM*	4%	-14%
Cc1ccc2c(c1)CC1(CN2C)C(=O)NC(=O)N(C(C)C)C1=O (stereo unspecified)	-7%	0%	6%	32µM*	1%	?
Cc1cccc(N2C(=O)NC(=O)C3(Cc4cc(C)ccc4N(C)C3)C2=O)c1 (stereo unspecified)	-6%	-6%	-1%	10µM*	-7%	8.9µM*
COc1ccc2c(c1)CC1(CN2C)C(=O)NC(=O)N(c2ccc(C)cc2)C1=O (stereo unspecified)	2%	4%	?	?	-5%	?
Cc1ccc2c(c1)CC1(CN2C)C(=O)NC(=O)N(CCC2=CCCCC2)C1=O (stereo unspecified)	-3%	10%	-5%	10µM*	-21%	3.5µM*
CC1(C)NCCN2C(=O)CSC21 (stereo unspecified)	-2%	3%	?	79µM*	23%	?
S=C1Nc2ccccc2Sc2ccccc21	3%	.	-9%	10µM*	?	10µM*
CCOC(=O)/C=C1\Nc2ccccc2SC1=O	0%	6%	?	14%[12.7 µM]	-3%	-3%
CSc1ccc2c(c1)c(CCN)c(C)n2Cc1ccccc1Cl	.	.	.	.	.	18%[13.5 µM]
Cc1ccccc1CN1CCN(c2ccc(Cl)cc2)CC1	4%	?	22µM*	13µM*	50µM*	-15%
COc1ccc(C)cc1NC(=O)CN1CCN(CC(=O)Nc2ccccc2F)CC1	-4%	?	2%	40µM*!	17%	?
CCOc1ccc(OCC)c(NC(=O)CN2CCN(c3ccc(C)cc3C)CC2)c1	-3%	?	?	10µM*	32µM*	?
COc1ccc(C)cc1NC(=O)N(Cc1ccc2c(c1)OCO2)C1CCN(Cc2ccccc2)CC1	8%	1%[46 µM]	.	?	.	.
Cc1ncc2n1-c1ccc(Cl)cc1C(c1ccccc1F)=NC2O (stereo unspecified)	.	.	.	.	-9%	.
COc1ccccc1/C=C1/C(=N/O)C2CCN1CC2	-2%	19%	-4%	0%[59 µM]	16%	16µM*
CCCCCCCCCCCCC/C=C/[C@@H](O)[C@@H](N)COP(=O)([O-])OCC[N+](C)(C)C	.	.	6%	.	?	1%
c1ccc(-c2nc(N3CCOCC3)s[n+]2-c2ccccc2)cc1	-86%	3%	-10%	1.1µM*	7.9µM*	1.8µM*
O=C(O)C(C(=O)O)P(=S)(S)c1ccccc1 (stereo unspecified)	.	.	.	.	.	8%[13.5 µM]

Looked up one by one from the list above, four records:
SMILES	miR-21 reporter	Lamin A splicing	KDM4E inh	G9a inh	Sfp PPTase inh	ALDH1A1 inh
COc1ccc2c(c1)CC1(CN2C)C(=O)NC(=O)N(c2ccc(C)cc2)C1=O (stereo unspecified)	2%	4%	?	?	-5%	?
COc1ccc(/C=C2\C(=O)NC(=S)N(C)C2=O)cc1C	2%	9%[46 µM]	?	.	18µM*	7.9µM*
O=C(N/N=C/c1c(O)n(-c2ccccc2)c(=S)[nH]c1=O)c1ccccc1	-45%	.	28µM*	5%	19%	.
C[C@@H](Cc1cccc(C(F)(F)F)c1)NCCCc1ccccc1	.	.	-3%	.	-21%	1%

Screens deposited in PubChem by National Center for Advancing Translational Sciences (NCATS).
